Measurements reported in patent publication US20060159616.

Tests used:
[1] = test system: T1, V-P-R-AMC fluorogenic substrate
T1 sequence: VPR

[2] = test system: T2, F-S-R-AMC fluorogenic substrate
T2 sequence: FSR

Substance: Trypsin
- cleavage of fluorogenic substrate [1]: Trypsin was highly active with both fluorogenic substrates, even at amounts as low as 1 ng
- cleavage of fluorogenic substrate [2]: Trypsin was highly active with both fluorogenic substrates, even at amounts as low as 1 ng
